Data as given in article PMC12765074, “Mechanistic insights into enterocin C targeting the undecaprenyl phosphate recycling protein BacA” (The Journal of Biological Chemistry, 2025).

Tested on: EntC2 peptide
Assay: FIDA, EntC2
Type: binding
Conditions: Fluo-EntC1 100 nM, EntC2 added, 0.1% DDM

CC[C@H](C)[C@H](NC(=O)[C@H](CCCCN)NC(=O)[C@H](CO)NC(=O)[C@H](Cc1ccccc1)NC(=O)[C@@H](NC(=O)[C@H](CO)NC(=O)[C@@H](N)CCC(=O)O)C(C)C)C(=O)NCC(=O)N[C@@H](CC(N)=O)C(=O)N[C@@H](C)C(=O)N[C@H](C(=O)NCC(=O)N1CCC[C@H]1C(=O)N[C@@H](C)C(=O)N[C@@H](C)C(=O)N[C@@H](Cc1ccc(O)cc1)C(=O)N[C@@H](Cc1c[nH]c2ccccc12)C(=O)N[C@H](C(=O)N[C@@H](CC(C)C)C(=O)N[C@@H](CCCCN)C(=O)NCC(=O)N[C@@H](CC(C)C)C(=O)NCC(=O)N[C@@H](CC(N)=O)C(=O)N[C@@H](CCSC)C(=O)N[C@@H](CO)C(=O)N[C@@H](CC(=O)O)C(=O)N[C@H](C(=O)N[C@@H](CC(N)=O)C(=O)N[C@@H](CCC(N)=O)C(=O)N[C@@H](C)C(=O)N[C@@H](CC(=O)O)C(=O)N[C@@H](CCCNC(=N)N)C(=O)N[C@H](C(=O)N[C@@H](CC(N)=O)C(=O)N[C@@H](CCCNC(=N)N)C(=O)N[C@@H](CCCCN)C(=O)N[C@@H](CCCCN)C(=O)N[C@@H](Cc1c[nH]cn1)C(=O)O)[C@@H](C)CC)C(C)C)[C@@H](C)CC)C(C)C (single isomer, unassigned) [EntC1]
hydrodynamic radius (Rh) with EntC2: did not induce an increase of EntC1 Rh
